Measurements as given in patent US9815851B2, “Pyrrolo carboxamides as modulators of orphan nuclear receptor RAR-related orphan receptor-gamma (RORγ, NR1F3) activity and for the treatment of chronic inflammatory and autoimmune diseases” (PHENEX PHARMACEUTICALS AG, priority 2011, dated 2017).

Sequences of proteins named here, by UniProt entry; tags and fusion partners are left off. Residues count along the entry.
UniProt P51449, 269-508 limits assumed: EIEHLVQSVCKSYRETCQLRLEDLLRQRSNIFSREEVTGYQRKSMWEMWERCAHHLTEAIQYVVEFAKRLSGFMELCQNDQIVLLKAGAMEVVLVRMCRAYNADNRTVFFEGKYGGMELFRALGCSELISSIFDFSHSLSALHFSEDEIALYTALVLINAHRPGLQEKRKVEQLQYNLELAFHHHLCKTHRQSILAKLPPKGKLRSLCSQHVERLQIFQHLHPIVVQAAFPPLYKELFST

Tests used:
[1] = target: RORγ ligand binding domain (LBD) (Homo sapiens, UniProt P51449); experiment: TR-FRET Activity Assay (ligand sensing, RORγ-LBD / coactivator peptide interaction, LANCE); assay type: biochemical; conditions: first value of the cell FRET/FF/REN
RORγ = RORγ (UniProt P51449); experiment: RORγ Gal4 Reporter Gene Assay in 293T cells (firefly and renilla luciferase); assay type: cell-based, human; conditions: for pIC50 (FF): second value of the cell, firefly luciferase; for pIC50 (REN): third value of the cell, renilla normalised luciferase

Row | SMILES | pIC50 (FRET) [1] | pIC50 (FF) (RORγ) | pIC50 (REN) (RORγ)
1 | Cc1c(C(=O)NCC2CNCCO2)cc(-c2cc(C(C)(C)C)c3c(c2)C2(CCO3)CC2)n1CC1CCCCC1.Cl (centres unmarked) [17/7] | 5.5/<4.7/<4.7 | – | –
2 | Cc1c(C(=O)NC2COC2)cc(-c2cc(C(C)(C)C)cc(S(=O)(=O)N(C)C(C)(C)C)c2)n1CC1CCCCC1 | 6.1 | 7.1 | 7.2
3 | COCCCCNC(=O)c1cc(-c2cc(C(C)(C)C)cc(C(C)(C)C)c2)n(CC2CCCCC2)c1C | 6.8 | 6.4 | 6.5
4 | COCC(=O)N1CC(NC(=O)c2cc(-c3cc(C(C)(C)C)cc(C(C)(C)C)c3)n(CC3CCCCC3)c2C)C1 | 6.2 | 6.4 | 6.4
5 | Cc1c(C(=O)NCC(C)(C)N)cc(-c2cc(C(C)(C)C)c3c(c2)C2(CCO3)CC2)n1CC1CCCCC1.Cl [17/27] | 5.6/6.3/6.5 | – | –
6 | Cc1c(C(=O)NC2CCOCC2)cc(-c2cc(C(=O)NC(C)(C)C)c3ccccn23)n1CC1CCCCC1 | 5.8 | 6.9 | 6.9
